In US20230130513A1, “Magnetic-Responsive Photosensitizer Nanoplatform and Uses Thereof” (University of Maryland, Baltimore, priority 2021, published 2023):

Test system: Human gingival fibroblasts

eucalyptus oil
cytotoxicity of the microemulsion components (in words): significant cytotoxicity
